The values that follow are results of earlier work, collected in article PMC4774423.

Amino acid sequences for entries named in this document (tags omitted). Residues count along the entry.
UniProt Q07021, 74-282: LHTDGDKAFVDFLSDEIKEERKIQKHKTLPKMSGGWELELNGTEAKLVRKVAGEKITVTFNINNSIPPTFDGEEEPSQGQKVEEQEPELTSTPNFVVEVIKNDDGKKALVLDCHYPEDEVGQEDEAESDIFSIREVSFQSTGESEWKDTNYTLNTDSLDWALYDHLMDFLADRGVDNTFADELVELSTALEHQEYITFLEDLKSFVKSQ
UniProt P27797, 18-417: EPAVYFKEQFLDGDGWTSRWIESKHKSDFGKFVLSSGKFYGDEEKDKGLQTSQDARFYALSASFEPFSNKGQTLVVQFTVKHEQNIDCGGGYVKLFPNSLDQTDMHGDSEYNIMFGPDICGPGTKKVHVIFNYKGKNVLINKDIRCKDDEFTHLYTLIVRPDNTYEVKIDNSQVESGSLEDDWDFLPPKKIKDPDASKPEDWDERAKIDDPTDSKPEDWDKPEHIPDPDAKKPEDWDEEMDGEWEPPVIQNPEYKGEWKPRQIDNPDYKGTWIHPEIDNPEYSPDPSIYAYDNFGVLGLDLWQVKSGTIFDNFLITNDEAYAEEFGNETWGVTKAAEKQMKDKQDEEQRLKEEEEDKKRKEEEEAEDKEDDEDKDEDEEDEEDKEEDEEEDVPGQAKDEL
UniProt P02745, 23-245: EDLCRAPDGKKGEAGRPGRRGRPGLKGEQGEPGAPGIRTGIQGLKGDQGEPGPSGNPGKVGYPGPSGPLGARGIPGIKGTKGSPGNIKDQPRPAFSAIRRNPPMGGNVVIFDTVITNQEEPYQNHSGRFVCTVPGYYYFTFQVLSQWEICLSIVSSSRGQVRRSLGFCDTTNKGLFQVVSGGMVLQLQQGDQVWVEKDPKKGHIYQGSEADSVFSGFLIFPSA

Series [1] addresses gC1qR (Homo sapiens) (UniProt Q07021).
Series [2] addresses CRT (Homo sapiens) (UniProt P27797).

Broadly, the Kd is a measure of binding affinity in units of concentration. As to “C1q-GR globular region (from UniProt P02745)”, the Kd was 0.37 µM in series [1] and 0.83 µM in series [2].
